# Data taken from patent US11077078B2, “Compositions and methods for the treatment of cancer” (KoDiscovery, LLC, priority 2006, dated 2021).
# Tested on: human lung cancer cells
compound,measurement,value
"O=C(O)C(=O)CBr [3-Bromopyruvate, 3-bromopyruvate]",effectiveness vs the closest comparative known anti-cancer agent,more than twice as effective
